Only a part is listed here, and it is no random draw. The source made the active and inactive calls. Calls follow the shape of the dose curve; as a rule, active = well fitted activation curve with a large enough effect; inconclusive = small, poorly fitted or top-dose-only effect; inactive = no such curve, though single readings can be large or run the other way.
Assay: qHTS for compounds that reverse cellular toxicity of Amyloid beta (A-beta) peptide in yeast: Primary Screen; also: nearly all actives have a fitted effect of over 55% in size
Conditions: yeast expressing A-beta42, growth rescue, OD600, 48 h, 0% DMSO, 100% iron-clioquinol control; at 46.1 µM (top of the series)
Description: The A-beta peptide is produced by the processing of the amyloid precursor protein (APP) by two proteases, beta and gamma secretases. […] A-beta42 is regarded as the most amyloidogenic form due to its hydrophobicity; however, precisely how A-beta42 induces neurotoxicity is unclear. To understand further this biology and its potential therapeutic implications for human neurodegenerative disease, a quantitative high-throughput screen for compounds that reverse the cellular toxicity of the A-beta peptide was developed. A yeast based screen was used because it recapitulates the salient feature of protein mis-folding disorder accurately. This cell-based phenotypic screen provides a significant, unbiased advantage by letting the compounds and models inform us which proteins or pathways are most relevant. The ideal chemical candidates would therefore have activity in both our primary yeast and secondary neuronal toxicity assays, as well as in mouse models. They will be valuable tools for dissecting diverse protein homeostasis pathologies and could potentially become the focus for future pre-clinical development. For this luminescence assay, inhibition of A-beta rescues the toxic effect in the yeast cell, resulting in increase of signals and the desired phenotype of "Activator". This screen is run against the Molecular Libraries Small Molecule Repository (MLSMR) and the NCGC Sytravon Library Collection.
NIH Chemical Genomics Center [NCGC]
NIH Molecular Libraries Probe Centers Network [MLPCN]
Assay Submitter (PI): Susan Lindquist, Whitehead Institute, Massachusetts Institute of Technology
[1] Vassar R,et al (1999). Beta-secretase cleavage of Alzheimer's amyloid precursor protein by the transmembrane aspartic protease BACE. Science. 286: 735-741.
[2] Yan R, et al (1999). Membrane-anchored aspartyl protease with Alzheimer's disease beta-secretase activity. Nature. 402: 533-536.
Two and a half microliter / well of yeast growth medium were dispensed in a 1536 assay plate. Compounds were pinned using the Kalypsys robotic system followed by addition of 2.5 uL / well yeast solution. The assay plates were incubated at 30 C. After 48 hr, the absorbance signal at 600 nm was obtained using the PerkinElmer ViewLux plate reader to assess yeast growth. The data was normalized to the positive control of an equimolar mixture of ferric chloride (FeCl3) and clioquinol and to the negative control DMSO.

| Compound | growth rescue |
| --- | --- |
| CC1CCN(C(=O)Oc2c(Cl)cc(Cl)c3cccnc23)CC1 | inactive: -2.66% |
| c1cc(-c2nn[nH]n2)ccc1-c1nn[nH]n1 | inactive: -0.0346% |
| CC(C)C(=O)NC(Sc1ccccc1)C(Cl)(Cl)Cl (configuration not stated) | inactive: -15.2% |
| c1nnnn1CCn1cnnn1 | inactive: 3.65% |
| COc1ccc(N)c([N+](=O)[O-])c1[N+](=O)[O-] | inactive: 3.27% |
| Nc1ccc(CCCCOc2ccccc2)cc1 | inactive: 3.08% |
| O=P(Nc1ccccn1)(c1ccc(Br)cc1)c1ccc(Br)cc1 | inactive: 6.99% |
| CN(C)C1(CNC(=O)c2ccc(Cl)c(S(N)(=O)=O)c2)CCCCC1 | inactive: 2.68% |
| C[C@H]1OP(=O)(Oc2ccccc2)[C@H](O)[C@H](O)[C@H]1N=[N+]=[N-] (some centres not stated) | inactive: -12.7% |
| O=P(Nc1nc2ccccc2s1)(c1ccccc1)c1ccccc1 | inactive: 8% |
| O=[N+]([O-])c1ccc(O)c(/C=N/Nc2ccc([N+](=O)[O-])cc2[N+](=O)[O-])c1 | inactive: -68.3% |
| O=[N+]([O-])c1ncn(CCn2cnc([N+](=O)[O-])n2)n1 | inactive: 2.97% |
| O=[As](O)(c1ccccc1)c1ccc(O)cc1 | inactive: -9.15% |
| C(Cc1nn[nH]n1)Cc1nn[nH]n1 | inactive: 6.15% |
| Nc1ccc([As](=O)(O)c2ccc([N+](=O)[O-])cc2)cc1 | inactive: -9.37% |
| O=C(OC1CN2CCC1CC2)c1cccc(Cl)c1 (configuration not stated) | inactive: 0.9% |
| CCNC(=S)/N=C(\N)N[N+](=O)[O-] | inactive: -0.255% |
| O=C(NC1CCS(=O)(=O)C1)NP(=S)(Oc1ccccc1)Oc1ccccc1 (configuration not stated) | inactive: 2.19% |
| Cc1ccc(NP(=O)(Oc2cccc(C)c2)Oc2cccc(C)c2)nc1 | inactive: 0.325% |
| c1ccc(-c2nn[nH]n2)c(-c2nn[nH]n2)c1 | inactive: -3.41% |
| O=P1(N(CCCl)CCCl)OCCC2CCCCN21 (configuration not stated) | inactive: 3.11% |

| Compound | growth rescue |
| --- | --- |
| CC(=O)NC(SC(=S)N(CC(C)C)CC(C)C)C(Cl)(Cl)Cl (configuration not stated) | inactive: 26.7% |
| Cc1ccc(OP(=O)(Nc2ccccn2)Oc2ccc(C)cc2)cc1 | inactive: -54.8% |
| COC(=O)c1cc2c(s1)N=C(c1ccccc1)N(C)P2(=O)N1CCOCC1 (configuration not stated) | inactive: 15% |
| CCC(=O)N1C2C3N(C(=O)CC)C1C1N(C(=O)CC)C(C(N1C(=O)CC)N3C(=O)CC)N2C(=O)CC | inactive: 4.14% |
| O=C(OC1CN2CCC1CC2)c1ccccc1 (configuration not stated) | inactive: -16% |
| O=c1c2cc([N+](=O)[O-])ccc2[nH]c2c([N+](=O)[O-])cc([N+](=O)[O-])cc12 | inactive: -93.7% |
| CN(C)C(=O)Oc1noc2ccccc12 | inactive: -16.8% |
| CC(NC(=O)COC(=O)C(O)(c1ccccc1)c1ccccc1)c1ccccc1 (configuration not stated) | inactive: 12.3% |
| Cc1ccccc1OP(=O)(Nc1ccccn1)Oc1ccccc1C | inactive: 13.8% |
| CCOc1ccc(C2=NCC(CBr)S2)cc1 (configuration not stated) | inactive: 2.72% |
| O=P1(Nc2nc3ccc(Cl)cc3s2)COc2ccccc2O1 (configuration not stated) | inactive: -9.25% |
| CCc1cc(O)c([N+](=O)[O-])c(C)c1[N+](=O)[O-] | inactive: -92.5% |
| CC(C)(C)C(=O)NC(Sc1ccccc1)C(Cl)(Cl)Cl (configuration not stated) | inactive: 8.77% |
| COC(=O)C1(C)COP(=O)(NCc2ccccc2)OC1 (configuration not stated) | inactive: -5.24% |
| CC(=O)c1ccc(N2CC2c2ccncc2)cc1 (configuration not stated) | inactive: -0.913% |
| N#C/C(=C\c1ccc(N(CCBr)CCBr)cc1)C(N)=O | inactive: -7.9% |
| C[C@H]1OP(=O)(Oc2ccccc2)C[C@@H]2O[C@@H]21 (some centres not stated) | inactive: 1.59% |
| C[C@@H]1C=CCP(=O)(Oc2ccccc2)O1 (some centres not stated) | inactive: 2.75% |
| Cc1ccccc1CN(C)C(=O)COC(=O)C(O)(c1ccccc1)c1ccccc1 | inactive: -10.7% |
| CC(=O)Nc1ccc(Oc2c([N+](=O)[O-])cc([N+](=O)[O-])cc2[N+](=O)[O-])cc1 | inactive: 2.43% |
| CC(=O)Nc1ccc([As](=O)(O)O)c(O)c1 | inactive: 5.95% |
